This is a selection; strong and weak results do not stand in their true shares. The source made the active and inactive calls.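 How the source made its calls: active means inhibition above the campaign's mean inhibition across all tested compounds plus 3 SD (cut at about 9.9% in these data); inactive means the rest.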

The nature of the assay: E. coli V3065 growth inhibition, primary screen, counter-screen for AddAB inhibitor project, absorbance, OD600 (AID 449728).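 Further: uninfected addAB+ strain grown without phage in ampicillin broth; 0% = DMSO wells and 100% = ciprofloxacin 0.95 µg/ml wells.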 The following applies: 18 h, at 11.9 µM, stronger effect = higher value.
Turning to `CCC(=O)N(c1ccccc1)C1(COC)CCN(CCc2cccs2)CC1`, the inhibition is inactive: -0.44%.
Take `CCC(=O)N(c1ccccc1)C1(COC)CCN(CCn2nnn(CC)c2=O)CC1`: the inhibition is inactive: -0.44%.

For orientation: inhibition means the relative decrease from the control value, in per cent.

The values above are taken from PubChem BioAssay AID449728 (The Scripps Research Institute Molecular Screening Center, 2010).
